One series relates to C[C@H](N)C(=O)O. The series is described as follows: purified protein. Particulars: L to D direction, 10 μM PLP, Tris-HCl pH 8.0, 37 °C.
In another series the test system is C[C@@H](N)C(=O)O. The series is described as follows: purified protein. Particulars: D to L direction, 10 μM PLP, 2.5 mM NAD+, Tris-HCl pH 8.0, 37 °C.

As usually defined, the Km is the substrate concentration at which the rate is half of its maximum. “Alr (Salmonella enterica subsp. enterica serovar Typhi)”: the values for the Km with C[C@H](N)C(=O)O and in the series with C[C@@H](N)C(=O)O were 62.1 ± 4 mM and 66.6 ± 4.3 mM, respectively.

(Values after article PMC6040060, “Identification of a new alanine racemase in Salmonella Enteritidis and its contribution to pathogenesis” (Gut Pathogens, 2018).)
